Molecular target: Acetylcholinesterase (Electrophorus electricus, UniProt O42275)
Assay: AChE Assay
Conditions: pH 7.6; 20 °C
Procedure: The inactivation of AChEs was determined using a colorimetric assay [Ellman et al., Biochem. Pharmacol., 7:88-95]. […] The inhibition of rMAChE and EEAChE by compounds 1-7 was determined as follows. DTNB solution and a solution of AChE yielding a 0.1 Abs unit/min rate in PBS (2.80 mL; pH 7.6) were placed in a cuvette at 20°C. To this solution was added either: (a) 10 μL of ACN as the control, or (b) 10 μL of ligand solution (10 mM in ACN). After 6 min incubation, the remaining enzyme activity was determined by adding 20 μL aliquots of the ATCh-I solutions and the hydrolysis rate was monitored at 412 nm over a period of 10 min ( 15 s intervals). The final concentrations of the reactants during enzyme assay were: 0.33 mM DTNB, 0.59 mM ATCh-I, 0.58 mM NaHCO3, and 0.05 mM inhibitor.

By UniProt entry, the sequences of proteins in these tests, tags left out. Where a name states a change or a piece, a line headed by the entry shows the natural chain unless it says otherwise.
UniProt O42275: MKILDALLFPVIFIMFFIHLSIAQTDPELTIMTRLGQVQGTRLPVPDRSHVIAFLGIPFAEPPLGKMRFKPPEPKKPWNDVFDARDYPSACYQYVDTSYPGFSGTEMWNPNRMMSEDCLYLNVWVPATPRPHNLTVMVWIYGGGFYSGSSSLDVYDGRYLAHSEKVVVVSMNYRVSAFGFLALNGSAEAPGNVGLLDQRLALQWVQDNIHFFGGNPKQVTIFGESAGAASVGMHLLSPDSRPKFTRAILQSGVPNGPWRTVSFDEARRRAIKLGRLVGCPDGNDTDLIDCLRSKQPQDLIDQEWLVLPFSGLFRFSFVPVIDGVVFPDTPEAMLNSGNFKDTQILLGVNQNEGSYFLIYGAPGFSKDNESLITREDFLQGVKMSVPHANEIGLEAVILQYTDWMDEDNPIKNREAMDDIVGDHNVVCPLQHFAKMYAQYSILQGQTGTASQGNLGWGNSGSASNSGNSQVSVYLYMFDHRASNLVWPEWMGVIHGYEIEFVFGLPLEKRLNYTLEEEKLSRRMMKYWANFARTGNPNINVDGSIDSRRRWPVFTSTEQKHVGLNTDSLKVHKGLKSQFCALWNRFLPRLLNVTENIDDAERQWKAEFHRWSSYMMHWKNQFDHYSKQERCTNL

C#CCNS(=O)(=O)c1ccc(-c2c3ccc(=[N+](CC)CC)cc-3oc3cc(N(CC)CC)ccc23)c(S(=O)(=O)[O-])c1 [Lissamine propargyl sulfonamide (6)]
IC50: 3.57 µM

C#CCNS(=O)(=O)c1ccc(C2=c3cc4c5c(c3Oc3c2cc2c6c3CCCN6CCC2)CCC[N+]=5CCC4)c(S(=O)(=O)[O-])c1 [Texas Red propargyl sulfonamide (7)]
IC50: 10.4 µM

Reference: BindingDB's records for doi:10.3109/14756360903027816 (The University of Montana, 2010)
